Each structure is given as a SMILES string. Like-named read-outs stand apart in the source and are kept apart here.

Chains of the proteins cited; added tags and fusions are not shown.
UniProt P62942, whole entry: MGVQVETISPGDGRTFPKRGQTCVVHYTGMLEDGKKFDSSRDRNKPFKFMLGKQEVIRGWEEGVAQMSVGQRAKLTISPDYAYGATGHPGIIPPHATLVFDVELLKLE

This assay deals with FKBP1A (Homo sapiens, UniProt P62942).
The mark [1] stands for this setting: FKBP1A peptide LVFDVELLK, Decreasing.
The mark [2] stands for this setting: FKBP1A peptide VFDVELLK, Decreasing.
[3] abbreviates: FKBP1A peptide YTGMLEDGK, Decreasing.

For `CO[C@H]1C[C@@H]2CC[C@@H](C)[C@@](O)(O2)C(=O)C(=O)N2CCCC[C@H]2C(=O)O[C@H]([C@H](C)C[C@@H]2CC[C@@H](O)[C@H](OC)C2)CC(=O)[C@H](C)/C=C(\C)[C@@H](O)[C@@H](OC)C(=O)[C@H](C)C[C@H](C)/C=C/C=C/C=C/1C` [Rapamycin], the “LiP Rank” value runs as follows: under setting [1], 8; under setting [2], 13; under setting [3], 7; (FKBP1A peptide […], Decreasing) 5. The Score is on record as 3.01 under setting [1]; 2.35 under setting [2]; 3.07 under setting [3]; 3.1 (FKBP1A peptide […], Decreasing); 4.49 (FKBP1A peptide […], Increasing); 4.910 (FKBP1A peptide […], Increasing, Supplementary Data 4). The DRC (peptide […], FKBP1A) was 0.982. Moreover, under “peptide […], FKBP1A”, the Target result is reported as “Yes”. Also, the “LiP Score” value (peptide […], FKBP1A, Supplementary Data 3) came out at 4.910.

The values are drawn from publication PMC7442650, “A machine learning-based chemoproteomic approach to identify drug targets and binding sites in complex proteomes” (Nature Communications, 2020).
